Measurements reported in publication PMC4770093, “The role of kinetic context in apparent biased agonism at GPCRs” (Nature Communications, 2016).

Amino acid sequences for entries named in this document (tags omitted). A change or cut given only in a name is not applied to a line headed by its entry.
UniProt P14416, whole entry: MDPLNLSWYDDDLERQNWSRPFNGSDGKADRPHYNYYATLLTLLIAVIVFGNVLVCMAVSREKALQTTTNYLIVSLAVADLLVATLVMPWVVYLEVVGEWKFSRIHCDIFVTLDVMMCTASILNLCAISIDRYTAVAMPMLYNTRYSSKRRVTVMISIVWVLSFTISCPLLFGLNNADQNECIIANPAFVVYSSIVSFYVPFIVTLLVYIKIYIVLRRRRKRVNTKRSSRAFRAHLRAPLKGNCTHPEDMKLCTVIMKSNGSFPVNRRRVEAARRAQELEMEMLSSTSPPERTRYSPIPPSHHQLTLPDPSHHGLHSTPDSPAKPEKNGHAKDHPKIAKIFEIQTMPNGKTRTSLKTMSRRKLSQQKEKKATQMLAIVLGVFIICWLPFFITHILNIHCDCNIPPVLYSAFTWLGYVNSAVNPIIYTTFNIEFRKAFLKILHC

Legend:
[1] = target: T1, D2LR (Homo sapiens, UniProt P14416); assay: xCELLigence cellular impedance (CI) assay
[2] = target: SNAP-tagged human dopamine D2L (Homo sapiens, UniProt P14416); assay: Tag-lite PPHT-red competition kinetic binding (HTRF); conditions: PPHT-red tracer
[3] = target: T1, D2LR; assay: GαoB G protein activation (BRET);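 note: Flp-In-CHO cells stably expressing D2LR, transiently transfected, agonist-stimulated in HBSS at 37 °C, net BRET read after coelenterazine, vehicle control subtracted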
[4] = target: T1, D2LR; conditions: 0.1 nM [3H]spiperone; 3 h at 37 °C; 100 μM GppNHp
[5] = target: T1, D2LR; assay: Inhibition of forskolin-induced cAMP production (BRET CAMYEL biosensor)

SMILES: CCCN1CCC[C@@H](c2cccc(O)c2)C1 [S-3PPP, (S)-(-)-3-(3-hydroxyphenyl)-N-propylpiperidine]
- pEC50 CI ([1]; 2 min): 7.66
- pEC50 CI ([1]; 5 min): 7.67
- pEC50 CI ([1]; 10 min): 7.58
- pEC50 CI ([1]; 15 min): 7.58
- pEC50 CI ([1]; 30 min): 7.50
- pEC50 CI ([1]; 45 min): 7.41
- pEC50 CI ([1]; 60 min): 7.39
- pEC50 CI ([1]; 75 min): 7.40
- pEC50 CI ([1]; 90 min): 7.41
- pKd (affinity determined from kinetic parameters) [2]: 6.11
- pEC50 Gao ([3]; 2 min): 6.46
- pEC50 Gao ([3]; 5 min): 6.54
- pEC50 Gao ([3]; 10 min): 6.57
- pEC50 Gao ([3]; 15 min): 6.67
- pEC50 Gao ([3]; 30 min): 7.02
- pEC50 Gao ([3]; 45 min): 6.78
- pEC50 Gao ([3]; 60 min): 6.79
- pEC50 Gao ([3]; 75 min): 6.62
- pEC50 Gao ([3]; 90 min): 6.77
- pKi (affinity from competition binding experiments using [3H]spiperone) [4]: 5.84 ± 0.06
- pEC50 cAMP ([5]; 2 min): 7.10
- pEC50 cAMP ([5]; 5 min): 6.78
- pEC50 cAMP ([5]; 10 min): 6.43
- pEC50 cAMP ([5]; 15 min): 6.37
- pEC50 cAMP ([5]; 30 min): 6.47
- pEC50 cAMP ([5]; 45 min): 5.99
- pEC50 cAMP ([5]; 60 min): 5.82
- pEC50 cAMP ([5]; 75 min): 6.04
- pEC50 cAMP ([5]; 90 min): 5.82
